Consider 22 molecules from PubChem BioAssay AID651635 (National Center for Advancing Translational Sciences (NCATS), 2012).

SMILES strings stand for the structures. Only a part is listed here, and it is no random draw. Records with an inconclusive call do not appear. The source made the active and inactive calls. Calls come from the whole dose curve; as a rule, active = well fitted cell-killing curve with a large enough effect; inconclusive = small, poorly fitted or top-dose-only effect, or effect the other way; inactive = no such curve, though single readings can be large or run the other way.

The experiment in a line: Viability Counterscreen for Primary qHTS for Inhibitors of ATXN expression. Note: nearly all actives have a fitted effect of over 40% in size. As to conditions: S2 cells (HEK-293 line with an ATXN2-luciferase reporter) viability, CellTiter-Fluor protease fluorescence, 24 h; at 56.7 µM (top of the series). A general note: A counterscreen serves to expose hits that act by an unwanted route or on another target.
With `CCN1CCC(Nc2cccc(F)c2)CC1`, the activity change, negative = cytotoxicity is inactive: -24.1%.

As to `COc1ccc(C(c2nnnn2C2CCCCC2)N2CCC(n3c(=O)[nH]c4ccccc43)CC2)cc1` (configuration not stated), the activity change, negative = cytotoxicity was inactive: -35.9%.

For the molecule `Cc1ccc(NC2(C#N)CCN(Cc3ccccc3)CC2)cc1`, the activity change, negative = cytotoxicity was inactive: -19.5%.

On to `Cc1ccc(C(=O)NCC2(N3CCCCC3)CCCCC2)o1`, for which the activity change, negative = cytotoxicity is inactive: -26.7%.

In the case of `Fc1ccccc1NC1CCN(Cc2ccccc2)CC1`, the activity change, negative = cytotoxicity was inactive: -5.55%.

On to `COc1cc(OC)cc(C(=O)NCC2(N3CCCCC3)CCCCC2)c1`, for which the activity change, negative = cytotoxicity is inactive: 17.5%.

Regarding `CN(C)C1(CNC(=O)c2ccc(C(C)(C)C)cc2)CCCCC1`, the activity change, negative = cytotoxicity was inactive: -37.2%.

`c1ccc(CN2CCC(Nc3ccccc3)CC2)cc1`: the activity change, negative = cytotoxicity was inactive: -20.9%.

In the case of `O=C(NCC1(N2CCOCC2)CCCCC1)c1ccccc1`, the activity change, negative = cytotoxicity is inactive: -12%.

With `CN(C)C1(CNC(=O)c2cccc(C#N)c2)CCCCC1`, the activity change, negative = cytotoxicity was inactive: 11.4%.

With `CC(C)(C)OC(=O)N1CCC(N(C(=O)c2ccccc2)c2ccc(Cl)cc2)CC1`, the activity change, negative = cytotoxicity was inactive: -18.9%.

Consider `O=C(NCC1(N2CCOCC2)CCCCC1)c1ccc([N+](=O)[O-])cc1`, for which the activity change, negative = cytotoxicity was inactive: -34.2%.

In the case of `N#Cc1ccc(C(=O)NCC2(N3CCCCC3)CCCCC2)cc1`, the activity change, negative = cytotoxicity was inactive: 10.9%.

Regarding `O=C(NCC1(N2CCOCC2)CCCCC1)c1ccccc1[N+](=O)[O-]`, the activity change, negative = cytotoxicity was inactive: -7%.

With `O=C(OC1CN2CCC1CC2)C1c2ccccc2C=Cc2ccccc21` (configuration not stated), the activity change, negative = cytotoxicity was inactive: -23.1%.

For the molecule `CCc1cc(C(=O)NCC2(N3CCCCC3)CCCCC2)sc1C`, the activity change, negative = cytotoxicity was inactive: -35.9%.

Regarding `N/C(=N\O)c1c(N)no[n+]1[O-]`, the activity change, negative = cytotoxicity is inactive: -26.8%.

With `CCOC(=O)N1CCC(Nc2ccc(C)cc2)CC1`, the activity change, negative = cytotoxicity was inactive: -18%.

For the molecule `COc1ccc(C(=O)NCC2(N3CCOCC3)CCCCC2)cc1OC`, the activity change, negative = cytotoxicity is inactive: -24.6%.

Consider `CCC(=O)N(c1ccccc1)C1CCNCC1`, for which the activity change, negative = cytotoxicity was inactive: -0.0187%.

As to `O=C(NCC1(N2CCOCC2)CCCCC1)c1cc(Br)ccc1Cl`, the activity change, negative = cytotoxicity is inactive: -16.1%.

Take `COc1cc(C(=O)NCC2(N3CCOCC3)CCCCC2)cc(OC)c1C`: the activity change, negative = cytotoxicity was inactive: -53.6%.
